In ChEMBL document CHEMBL3301361, “Experimental in vitro DMPK and physicochemical data on a set of publicly disclosed compounds”:

What was measured:
in vitro [1] = details: SD, HW or BN, rat, plasma
in vitro [2] = details: human, plasma, PPB

SMILES | fraction unbound at 5 h (in vitro [1]) | fraction unbound at 5 h (in vitro [2])
O=P1(N(CCCl)CCCl)NCCCO1 (stereo not drawn) [CYCLOPHOSPHAMIDE ANHYDROUS] | 0.858 | 
CN(C)CCC=C1c2ccccc2COc2ccccc21 [DOXEPIN] | 0.204 | 0.236
